Data: PubChem BioAssay AID504840 (Johns Hopkins Ion Channel Center, 2011)
The list shows a part of the results, in another mix than the full data. Potency and affinity values are given separately. Activity calls are given as the source filed them.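 Rule for the calls: active = inhibition of the choline-evoked signal at any tested dose together with a fitted dose-response curve; inactive = no inhibition at any dose or no curve.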

By UniProt entry, the sequences of proteins in these tests, tags left out. Where a name states a change or a piece, a line headed by the entry shows the natural chain unless it says otherwise.
UniProt Q9GZV3, whole entry, stated change not applied: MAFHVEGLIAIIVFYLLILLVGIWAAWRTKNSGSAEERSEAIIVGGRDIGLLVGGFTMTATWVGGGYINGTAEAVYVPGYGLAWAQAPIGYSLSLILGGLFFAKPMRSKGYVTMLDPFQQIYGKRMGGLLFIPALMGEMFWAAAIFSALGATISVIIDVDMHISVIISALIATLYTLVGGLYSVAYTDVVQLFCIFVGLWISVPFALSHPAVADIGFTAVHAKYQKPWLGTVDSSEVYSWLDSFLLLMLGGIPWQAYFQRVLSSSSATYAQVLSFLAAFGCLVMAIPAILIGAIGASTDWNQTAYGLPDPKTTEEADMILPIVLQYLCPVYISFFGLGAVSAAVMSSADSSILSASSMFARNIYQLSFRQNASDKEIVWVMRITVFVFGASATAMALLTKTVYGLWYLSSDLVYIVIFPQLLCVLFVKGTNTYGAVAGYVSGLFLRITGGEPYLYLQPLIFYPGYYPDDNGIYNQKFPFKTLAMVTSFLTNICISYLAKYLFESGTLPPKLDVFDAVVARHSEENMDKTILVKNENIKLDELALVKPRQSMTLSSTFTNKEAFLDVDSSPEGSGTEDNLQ

Each molecule was assayed against High affinity choline transporter 1 (Homo sapiens) (UniProt Q9GZV3) (assay: human choline transporter blockers, potency – cell-based, 5-point CRC, membrane potential dye, dose response (AID 504840;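 note: 0% = buffer-only response and 100% = EC90 choline response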)). Details: HEK293-CHT, choline-induced depolarization, CHT with LV-to-AA double alanine mutation; at 37 µM (top of the series).
For `O=[N+]([O-])c1cc([N+](=O)[O-])c(Nc2ccccn2)c([N+](=O)[O-])c1`, the inhibition was inactive: 45.4%.
In the case of `CC1=NCCc2c1[nH]c1ccccc21.O=[N+]([O-])c1cc([N+](=O)[O-])c(O)c([N+](=O)[O-])c1`, the inhibition was inactive: 42.5%.
